Source: US10751335B2 (priority 2016, dated 2020)

By UniProt entry, the sequences of proteins in these tests, tags left out.
UniProt P42866, whole entry, looked up: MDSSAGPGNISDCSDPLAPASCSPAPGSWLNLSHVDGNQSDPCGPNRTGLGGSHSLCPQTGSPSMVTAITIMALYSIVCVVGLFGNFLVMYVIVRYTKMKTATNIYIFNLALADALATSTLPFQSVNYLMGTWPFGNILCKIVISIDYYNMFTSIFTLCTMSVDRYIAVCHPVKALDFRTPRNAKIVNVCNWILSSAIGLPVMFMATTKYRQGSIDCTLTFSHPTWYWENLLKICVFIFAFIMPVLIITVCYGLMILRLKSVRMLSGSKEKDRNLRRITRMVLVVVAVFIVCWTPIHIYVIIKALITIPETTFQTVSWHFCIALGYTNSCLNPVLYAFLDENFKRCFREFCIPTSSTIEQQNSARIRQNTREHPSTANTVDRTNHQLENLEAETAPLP
UniProt P35372, whole entry, looked up: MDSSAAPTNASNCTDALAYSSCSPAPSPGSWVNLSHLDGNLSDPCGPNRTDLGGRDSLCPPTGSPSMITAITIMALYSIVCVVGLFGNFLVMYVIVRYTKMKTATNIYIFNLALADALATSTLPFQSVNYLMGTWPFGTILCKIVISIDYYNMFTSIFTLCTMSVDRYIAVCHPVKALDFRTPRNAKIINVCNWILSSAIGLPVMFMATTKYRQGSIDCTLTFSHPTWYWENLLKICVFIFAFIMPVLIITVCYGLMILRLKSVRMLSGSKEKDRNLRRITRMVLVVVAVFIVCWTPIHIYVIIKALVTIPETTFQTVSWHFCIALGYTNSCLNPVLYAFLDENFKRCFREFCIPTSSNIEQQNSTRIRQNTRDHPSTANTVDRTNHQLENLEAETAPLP

Experiments:
MOR = MOR (Mus musculus (Mouse), UniProt P42866); details: 1 μM
human MOR = human MOR (Homo sapiens (Human), UniProt P35372); details: normalized to DAMGO

SMILES: C[C@@H](NC(=O)[C@@H](N)Cc1ccc(O)cc1)C(=O)NCC(=O)N(C)[C@@H](Cc1ccccc1)C(=O)NCCO
- agonist-induced MOR phosphorylation at serine 375 (MOR): induce phosphorylation
- G/βarr2 bias factor (human MOR): 1
